From patent publication US12653894B2, “Degradation of FAK or FAK and ALK by conjugation of FAK and ALK inhibitors with E3 ligase ligands and methods of use” (DANA-FARBER CANCER INSTITUTE, INC., priority 2018, dated 2026)

Sequences of proteins named here, by UniProt entry; tags and fusion partners are left off. A line that says so, or that is headed by a name, gives the form on record, which may keep a tag or linker.
UniProt Q9UM73, with tags, fused parts or gaps: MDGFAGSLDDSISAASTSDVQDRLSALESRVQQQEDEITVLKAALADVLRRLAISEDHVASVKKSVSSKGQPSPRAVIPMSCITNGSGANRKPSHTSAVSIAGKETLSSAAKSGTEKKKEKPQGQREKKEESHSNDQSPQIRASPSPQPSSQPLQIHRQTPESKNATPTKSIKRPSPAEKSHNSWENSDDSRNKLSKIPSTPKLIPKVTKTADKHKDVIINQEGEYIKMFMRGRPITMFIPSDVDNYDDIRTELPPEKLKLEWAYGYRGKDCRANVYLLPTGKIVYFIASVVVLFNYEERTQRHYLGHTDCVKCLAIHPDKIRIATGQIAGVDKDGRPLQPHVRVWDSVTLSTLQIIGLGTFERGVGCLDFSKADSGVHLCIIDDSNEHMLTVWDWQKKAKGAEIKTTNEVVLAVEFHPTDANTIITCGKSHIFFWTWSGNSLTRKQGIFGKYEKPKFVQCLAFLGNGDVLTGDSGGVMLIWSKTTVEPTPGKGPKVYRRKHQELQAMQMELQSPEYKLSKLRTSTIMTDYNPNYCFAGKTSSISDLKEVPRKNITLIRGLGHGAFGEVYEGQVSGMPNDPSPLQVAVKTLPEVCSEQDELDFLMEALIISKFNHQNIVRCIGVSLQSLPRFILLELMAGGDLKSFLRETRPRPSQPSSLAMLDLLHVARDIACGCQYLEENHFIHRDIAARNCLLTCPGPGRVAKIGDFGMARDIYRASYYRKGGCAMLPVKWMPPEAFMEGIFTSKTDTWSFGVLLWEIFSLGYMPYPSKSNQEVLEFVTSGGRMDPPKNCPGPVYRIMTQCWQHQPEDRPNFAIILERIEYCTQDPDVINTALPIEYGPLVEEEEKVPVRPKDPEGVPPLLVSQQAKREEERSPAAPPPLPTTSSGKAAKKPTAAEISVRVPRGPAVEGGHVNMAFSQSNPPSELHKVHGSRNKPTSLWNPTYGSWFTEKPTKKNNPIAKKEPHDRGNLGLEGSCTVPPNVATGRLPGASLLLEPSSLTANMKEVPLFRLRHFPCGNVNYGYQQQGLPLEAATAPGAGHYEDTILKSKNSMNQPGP

Molecular target: ALK (Homo sapiens, UniProt Q9UM73)
Experiment: ALK degradation by immunoblot in H3122 cells
Format: cell-based
Set-up: endogenous in cells; host or cells: H3122; the other entry of the earlier key: EML4 (Q9HC35, Echinoderm microtubule-associated protein-like 4)
Conditions: 10 nM to 1000 nM, 16 hours (compound 10) or 24 hours (compounds 1, 9)

CNC(=O)c1ccccc1Nc1cc(Nc2ccc(N3CCN(CCCCCCNC(=O)COc4cccc5c4C(=O)N(C4CCC(=O)NC4=O)C5=O)CC3)cc2OC)ncc1C(F)(F)F (stereo not shown) [Compound 1, 2-((2-((4-(4-(6-(2-((2-(2,6-dioxopiperidin-3-yl)-1,3-dioxoisoindolin-4-yl)oxy)acetamido)hexyl)piperazin-1-yl)-2-methoxyphenyl)amino)-5-(trifluoromethyl)pyridin-4-yl)amino)-N-methylbenzamide]
Degradation of ALK protein in H3122 cells (in words): do not show degradation of ALK
